The numbers were not newly measured in paper PMC10629583, “Specific inhibition of an anticancer target, polo-like kinase 1, by allosterically dismantling its mechanism of substrate recognition” (Proceedings of the National Academy of Sciences of the …, 2023), which cites them from elsewhere.

Sequences of proteins named here, by UniProt entry; tags and fusion partners are left off. Residues count along the entry.
UniProt P53350, 371-603: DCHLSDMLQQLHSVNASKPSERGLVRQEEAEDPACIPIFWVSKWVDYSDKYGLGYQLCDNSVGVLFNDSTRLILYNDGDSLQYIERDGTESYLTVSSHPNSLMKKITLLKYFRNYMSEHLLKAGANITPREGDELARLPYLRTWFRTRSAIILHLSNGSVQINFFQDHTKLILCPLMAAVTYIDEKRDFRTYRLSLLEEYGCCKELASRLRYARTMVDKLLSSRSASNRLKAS
UniProt Q71F23, whole entry, looked up, tested part not stated: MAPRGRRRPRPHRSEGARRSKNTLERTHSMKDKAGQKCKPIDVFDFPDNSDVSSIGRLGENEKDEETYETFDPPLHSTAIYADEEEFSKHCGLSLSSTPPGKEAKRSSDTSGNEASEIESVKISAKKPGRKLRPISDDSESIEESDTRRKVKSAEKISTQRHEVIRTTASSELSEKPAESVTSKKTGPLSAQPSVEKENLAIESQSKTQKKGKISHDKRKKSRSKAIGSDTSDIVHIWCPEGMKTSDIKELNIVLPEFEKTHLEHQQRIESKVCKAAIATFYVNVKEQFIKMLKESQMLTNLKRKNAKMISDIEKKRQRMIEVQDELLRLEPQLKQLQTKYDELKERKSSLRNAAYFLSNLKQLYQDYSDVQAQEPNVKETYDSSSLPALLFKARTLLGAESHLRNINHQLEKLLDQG

The target of the data set is PLK1 PBD (Homo sapiens) (UniProt P53350).

As for “PLHSpT (PBIP1 p-T78 peptide) (from UniProt Q71F23)”, the Kd (commonly the free concentration of one partner at which half of the binding sites on the other are occupied at equilibrium, for simple one-to-one binding) was 450 nM.
